This note sets out measurements from patent publication US11261152B2, “Inhibitors of the N-terminal domain of the androgen receptor” (The Regents of the University of California, priority 2017, dated 2022).

The test system of this assay is AR transcriptional activity (MMTV reporter). In words: MMTV reporter assay. It is filed as cell-based. Conditions: Table 3 grade HIGH/MED/LOW, grades not defined. On the technique in general: Reporter assays use an easily measured gene product as a stand-in for the process of interest.

As for `CNC(=O)c1ccc(N2C(=S)N(c3ccc(C#N)c(C(F)(F)F)c3)C(=O)C2(C)C)cc1F` [MDV 3100, enzalutamide, reference compound], the MMTV entry is given as “HIGH”.
